Experimental data published in ChEMBL document CHEMBL5137027, “Discovery of quinazoline derivatives CZw-124 as a pan-TRK inhibitor with potent anticancer effects in vitro and in vivo” (Eur J Med Chem, 2022).

By UniProt entry, the sequences of proteins in these tests, tags left out. Where a name states a change or a piece, a line headed by the entry shows the natural chain unless it says otherwise.
UniProt P22612, whole entry, looked up: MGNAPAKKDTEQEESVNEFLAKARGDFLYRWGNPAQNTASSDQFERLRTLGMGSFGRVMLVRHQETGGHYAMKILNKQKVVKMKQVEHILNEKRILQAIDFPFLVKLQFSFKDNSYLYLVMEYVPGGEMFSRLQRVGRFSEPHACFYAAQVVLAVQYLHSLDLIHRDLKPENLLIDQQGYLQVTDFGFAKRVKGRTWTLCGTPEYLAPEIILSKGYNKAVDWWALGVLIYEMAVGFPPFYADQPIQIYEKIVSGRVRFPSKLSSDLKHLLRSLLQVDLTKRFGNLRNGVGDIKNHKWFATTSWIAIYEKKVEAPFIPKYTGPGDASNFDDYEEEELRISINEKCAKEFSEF
UniProt Q9UM73: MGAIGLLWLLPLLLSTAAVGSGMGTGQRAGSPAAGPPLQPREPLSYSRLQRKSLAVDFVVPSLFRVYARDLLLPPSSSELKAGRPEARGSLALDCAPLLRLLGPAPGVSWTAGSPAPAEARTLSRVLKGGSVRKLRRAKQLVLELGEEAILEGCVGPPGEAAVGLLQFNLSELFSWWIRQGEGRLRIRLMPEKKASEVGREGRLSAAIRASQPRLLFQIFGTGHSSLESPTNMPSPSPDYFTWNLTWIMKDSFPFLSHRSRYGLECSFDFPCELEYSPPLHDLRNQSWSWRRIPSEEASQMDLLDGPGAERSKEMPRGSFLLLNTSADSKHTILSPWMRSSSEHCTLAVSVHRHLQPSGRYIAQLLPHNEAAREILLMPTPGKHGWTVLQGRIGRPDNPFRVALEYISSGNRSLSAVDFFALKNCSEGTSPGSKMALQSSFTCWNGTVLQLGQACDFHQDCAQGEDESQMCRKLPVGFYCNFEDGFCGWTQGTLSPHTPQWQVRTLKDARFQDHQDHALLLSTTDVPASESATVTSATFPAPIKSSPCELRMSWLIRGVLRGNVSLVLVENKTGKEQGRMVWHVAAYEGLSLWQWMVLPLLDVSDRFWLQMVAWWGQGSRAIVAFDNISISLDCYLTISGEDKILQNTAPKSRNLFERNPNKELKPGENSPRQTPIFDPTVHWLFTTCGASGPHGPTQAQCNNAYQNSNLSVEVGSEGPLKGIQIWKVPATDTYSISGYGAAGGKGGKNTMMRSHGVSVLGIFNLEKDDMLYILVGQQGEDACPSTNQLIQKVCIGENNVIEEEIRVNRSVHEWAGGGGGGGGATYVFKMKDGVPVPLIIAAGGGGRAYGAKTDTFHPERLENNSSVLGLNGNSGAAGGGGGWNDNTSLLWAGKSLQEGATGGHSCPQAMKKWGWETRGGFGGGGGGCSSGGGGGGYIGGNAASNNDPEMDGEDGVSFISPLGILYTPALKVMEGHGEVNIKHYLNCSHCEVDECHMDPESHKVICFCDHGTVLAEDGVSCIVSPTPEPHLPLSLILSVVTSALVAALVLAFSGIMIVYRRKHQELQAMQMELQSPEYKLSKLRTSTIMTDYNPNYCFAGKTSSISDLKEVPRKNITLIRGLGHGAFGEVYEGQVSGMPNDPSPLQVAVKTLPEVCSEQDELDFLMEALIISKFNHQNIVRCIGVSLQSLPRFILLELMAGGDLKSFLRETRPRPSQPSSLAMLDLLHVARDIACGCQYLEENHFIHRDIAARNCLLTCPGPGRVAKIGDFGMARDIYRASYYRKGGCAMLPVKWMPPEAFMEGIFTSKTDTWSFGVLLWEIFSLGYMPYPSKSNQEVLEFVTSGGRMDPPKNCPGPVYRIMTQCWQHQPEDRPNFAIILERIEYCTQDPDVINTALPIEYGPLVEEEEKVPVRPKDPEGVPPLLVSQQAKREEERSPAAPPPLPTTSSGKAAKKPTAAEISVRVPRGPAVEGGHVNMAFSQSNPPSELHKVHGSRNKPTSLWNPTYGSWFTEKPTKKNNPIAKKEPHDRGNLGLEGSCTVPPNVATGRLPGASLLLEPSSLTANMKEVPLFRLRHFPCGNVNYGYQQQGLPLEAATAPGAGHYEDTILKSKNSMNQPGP
UniProt P51451: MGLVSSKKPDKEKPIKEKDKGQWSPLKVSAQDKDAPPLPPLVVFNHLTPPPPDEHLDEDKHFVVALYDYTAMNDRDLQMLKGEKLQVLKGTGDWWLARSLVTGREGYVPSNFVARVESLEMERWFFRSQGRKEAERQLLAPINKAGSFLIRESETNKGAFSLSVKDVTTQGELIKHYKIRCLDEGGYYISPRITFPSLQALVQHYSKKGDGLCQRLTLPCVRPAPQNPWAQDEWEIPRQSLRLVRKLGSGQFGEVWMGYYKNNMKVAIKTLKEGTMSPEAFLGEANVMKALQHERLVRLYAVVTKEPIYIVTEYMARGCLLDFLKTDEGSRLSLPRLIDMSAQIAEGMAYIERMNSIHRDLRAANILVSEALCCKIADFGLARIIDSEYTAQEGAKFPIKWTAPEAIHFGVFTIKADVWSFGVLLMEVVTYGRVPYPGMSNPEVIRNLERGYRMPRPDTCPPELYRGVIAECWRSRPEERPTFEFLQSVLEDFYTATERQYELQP
UniProt Q02763: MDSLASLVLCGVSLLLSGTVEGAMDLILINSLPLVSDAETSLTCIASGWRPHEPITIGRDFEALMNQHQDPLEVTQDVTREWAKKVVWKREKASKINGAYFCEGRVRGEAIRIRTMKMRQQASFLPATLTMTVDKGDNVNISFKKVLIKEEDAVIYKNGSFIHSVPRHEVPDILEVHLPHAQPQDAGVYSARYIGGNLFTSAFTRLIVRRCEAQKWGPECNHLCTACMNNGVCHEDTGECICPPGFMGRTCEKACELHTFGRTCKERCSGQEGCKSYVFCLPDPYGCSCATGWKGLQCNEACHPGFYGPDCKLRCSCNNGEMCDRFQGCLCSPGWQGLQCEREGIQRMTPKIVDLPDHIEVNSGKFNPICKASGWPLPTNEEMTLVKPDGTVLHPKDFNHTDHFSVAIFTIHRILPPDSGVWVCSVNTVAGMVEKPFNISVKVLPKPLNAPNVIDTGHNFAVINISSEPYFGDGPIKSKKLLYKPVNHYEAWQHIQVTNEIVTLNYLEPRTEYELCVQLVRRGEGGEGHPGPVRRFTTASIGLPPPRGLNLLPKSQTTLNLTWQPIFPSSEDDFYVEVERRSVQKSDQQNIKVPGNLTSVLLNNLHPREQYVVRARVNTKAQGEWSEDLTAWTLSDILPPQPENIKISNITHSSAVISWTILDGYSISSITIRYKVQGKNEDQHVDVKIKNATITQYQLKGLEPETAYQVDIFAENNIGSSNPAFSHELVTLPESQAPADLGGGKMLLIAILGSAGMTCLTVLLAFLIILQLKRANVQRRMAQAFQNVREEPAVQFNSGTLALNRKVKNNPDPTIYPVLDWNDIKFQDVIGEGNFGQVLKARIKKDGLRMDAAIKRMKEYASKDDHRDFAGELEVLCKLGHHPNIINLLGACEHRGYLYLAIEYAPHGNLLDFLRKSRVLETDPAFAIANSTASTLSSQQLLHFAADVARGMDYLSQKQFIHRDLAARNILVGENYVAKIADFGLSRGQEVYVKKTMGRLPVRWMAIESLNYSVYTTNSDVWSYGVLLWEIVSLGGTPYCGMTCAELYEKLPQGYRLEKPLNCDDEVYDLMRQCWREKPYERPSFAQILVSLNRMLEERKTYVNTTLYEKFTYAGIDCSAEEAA
UniProt P11309, whole entry, looked up: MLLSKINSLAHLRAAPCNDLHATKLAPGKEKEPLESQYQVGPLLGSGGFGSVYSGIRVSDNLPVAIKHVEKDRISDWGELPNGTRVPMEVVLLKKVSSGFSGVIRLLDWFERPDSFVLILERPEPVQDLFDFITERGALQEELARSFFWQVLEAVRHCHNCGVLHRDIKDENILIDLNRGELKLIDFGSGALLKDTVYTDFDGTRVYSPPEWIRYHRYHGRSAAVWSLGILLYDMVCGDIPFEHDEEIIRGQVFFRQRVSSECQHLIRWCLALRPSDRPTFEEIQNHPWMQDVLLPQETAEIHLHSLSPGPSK
UniProt O96017, whole entry: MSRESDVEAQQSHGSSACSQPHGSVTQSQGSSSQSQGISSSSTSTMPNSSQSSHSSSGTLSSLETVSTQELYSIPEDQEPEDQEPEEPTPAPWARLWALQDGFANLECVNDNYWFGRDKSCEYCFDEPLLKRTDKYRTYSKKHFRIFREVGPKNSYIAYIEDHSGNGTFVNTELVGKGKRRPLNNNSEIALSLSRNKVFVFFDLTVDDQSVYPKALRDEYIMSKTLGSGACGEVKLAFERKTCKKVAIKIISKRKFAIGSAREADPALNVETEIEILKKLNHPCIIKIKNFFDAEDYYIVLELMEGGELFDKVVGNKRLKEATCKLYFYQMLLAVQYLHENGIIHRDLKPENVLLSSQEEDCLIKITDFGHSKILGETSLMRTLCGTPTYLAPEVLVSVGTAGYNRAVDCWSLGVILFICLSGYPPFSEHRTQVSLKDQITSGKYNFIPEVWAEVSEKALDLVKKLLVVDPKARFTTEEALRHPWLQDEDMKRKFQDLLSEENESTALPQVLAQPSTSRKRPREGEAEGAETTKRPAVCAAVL
UniProt Q9UHD2: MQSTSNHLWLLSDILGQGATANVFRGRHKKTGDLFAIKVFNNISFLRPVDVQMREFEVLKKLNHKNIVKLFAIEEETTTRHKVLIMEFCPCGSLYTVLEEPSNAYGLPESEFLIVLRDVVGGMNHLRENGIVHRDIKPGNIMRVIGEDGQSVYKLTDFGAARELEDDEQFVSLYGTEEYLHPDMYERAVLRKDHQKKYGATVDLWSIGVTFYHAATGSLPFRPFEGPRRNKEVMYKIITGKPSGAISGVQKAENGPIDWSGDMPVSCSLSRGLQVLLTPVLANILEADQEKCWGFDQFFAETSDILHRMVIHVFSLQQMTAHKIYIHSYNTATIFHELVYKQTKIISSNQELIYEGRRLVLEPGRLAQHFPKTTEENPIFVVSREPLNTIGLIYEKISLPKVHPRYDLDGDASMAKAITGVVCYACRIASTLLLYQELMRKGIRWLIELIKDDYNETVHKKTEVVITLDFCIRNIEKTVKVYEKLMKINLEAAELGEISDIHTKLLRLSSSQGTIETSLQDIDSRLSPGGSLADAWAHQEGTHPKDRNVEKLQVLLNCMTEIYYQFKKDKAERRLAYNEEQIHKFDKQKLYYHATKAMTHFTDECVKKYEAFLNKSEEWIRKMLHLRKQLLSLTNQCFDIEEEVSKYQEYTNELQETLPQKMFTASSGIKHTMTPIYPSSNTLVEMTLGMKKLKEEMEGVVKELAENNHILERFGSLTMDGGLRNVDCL
UniProt P15056, whole entry: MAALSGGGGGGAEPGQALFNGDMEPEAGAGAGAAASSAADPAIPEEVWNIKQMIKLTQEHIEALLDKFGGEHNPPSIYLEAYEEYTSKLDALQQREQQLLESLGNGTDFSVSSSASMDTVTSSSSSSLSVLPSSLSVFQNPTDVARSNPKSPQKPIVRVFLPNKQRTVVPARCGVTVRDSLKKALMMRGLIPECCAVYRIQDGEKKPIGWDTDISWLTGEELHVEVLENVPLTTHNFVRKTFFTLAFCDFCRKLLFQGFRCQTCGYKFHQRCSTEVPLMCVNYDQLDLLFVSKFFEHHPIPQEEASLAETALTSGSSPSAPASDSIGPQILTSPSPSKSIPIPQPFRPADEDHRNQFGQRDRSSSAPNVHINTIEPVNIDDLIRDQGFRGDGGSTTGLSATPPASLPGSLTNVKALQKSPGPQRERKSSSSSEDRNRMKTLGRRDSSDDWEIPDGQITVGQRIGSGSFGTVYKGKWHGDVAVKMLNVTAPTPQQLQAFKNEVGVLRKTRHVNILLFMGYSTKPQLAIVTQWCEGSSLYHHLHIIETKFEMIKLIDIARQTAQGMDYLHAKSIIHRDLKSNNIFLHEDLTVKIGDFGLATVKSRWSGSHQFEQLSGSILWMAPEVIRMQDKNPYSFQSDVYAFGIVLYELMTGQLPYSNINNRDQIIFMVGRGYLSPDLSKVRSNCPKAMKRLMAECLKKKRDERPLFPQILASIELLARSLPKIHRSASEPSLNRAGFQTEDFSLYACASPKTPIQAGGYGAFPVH
UniProt O00506, whole entry, looked up: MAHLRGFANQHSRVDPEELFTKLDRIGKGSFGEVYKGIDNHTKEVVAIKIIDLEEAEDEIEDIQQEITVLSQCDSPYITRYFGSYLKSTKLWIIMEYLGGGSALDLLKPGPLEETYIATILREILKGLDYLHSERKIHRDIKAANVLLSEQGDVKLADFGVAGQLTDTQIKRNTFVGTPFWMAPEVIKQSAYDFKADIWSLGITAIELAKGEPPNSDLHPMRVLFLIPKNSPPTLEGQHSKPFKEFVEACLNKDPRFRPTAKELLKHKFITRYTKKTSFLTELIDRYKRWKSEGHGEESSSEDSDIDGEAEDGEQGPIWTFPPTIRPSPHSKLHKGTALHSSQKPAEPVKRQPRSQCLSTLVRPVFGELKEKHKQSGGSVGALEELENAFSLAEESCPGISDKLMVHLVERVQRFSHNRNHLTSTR

Legend:
[1] = biological target: cAMP-dependent protein kinase (PKA) (Homo sapiens) (UniProt P22694+P17612+P22612); test: Inhibition of PKA (unknown origin) at 1 uM relative to control; format: protein assay
[2] = biological target: Mitogen-activated protein kinase 1 (Homo sapiens) (UniProt P28482); test: Inhibition of ERK2 (unknown origin) at 1 uM relative to control
[3] = biological target: Serine/threonine-protein kinase 16 (Homo sapiens) (UniProt O75716); test: Inhibition of PKL12 (unknown origin) at 1 uM relative to control
[4] = biological target: Hepatocyte growth factor receptor (Homo sapiens) (UniProt P08581); test: Inhibition of cMet (unknown origin) at 1 uM relative to control
[5] = biological target: ALK tyrosine kinase receptor (Homo sapiens) (UniProt Q9UM73); test: Inhibition of ALK (unknown origin) at 1 uM relative to control
[6] = biological target: Serine/threonine-protein kinase PLK4 (Homo sapiens) (UniProt O00444); test: Inhibition of PLK4 (unknown origin) at 1 uM relative to control
[7] = biological target: Tyrosine-protein kinase JAK1 (Homo sapiens) (UniProt P23458); test: Inhibition of JAK1 (unknown origin) at 1 uM relative to control
[8] = biological target: Tyrosine-protein kinase Blk (Homo sapiens) (UniProt P51451); test: Inhibition of BLK (unknown origin) at 1 uM relative to control
[9] = biological target: Serine/threonine-protein kinase Nek1 (Homo sapiens) (UniProt Q96PY6); test: Inhibition of NEK1 (unknown origin) at 1 uM relative to control
[10] = biological target: RAF proto-oncogene serine/threonine-protein kinase (Homo sapiens) (UniProt P04049); test: Inhibition of RAF1 (unknown origin) at 1 uM relative to control
[11] = biological target: Misshapen-like kinase 1 (Homo sapiens) (UniProt Q8N4C8); test: Inhibition of MINK1 (unknown origin) at 1 uM relative to control
[12] = biological target: Protein kinase C alpha type (Homo sapiens) (UniProt P17252); test: Inhibition of PRKCA (unknown origin) at 1 uM relative to control
[13] = biological target: Angiopoietin-1 receptor (Homo sapiens) (UniProt Q02763); test: Inhibition of TEK (unknown origin) at 1 uM relative to control
[14] = biological target: Serine/threonine-protein kinase pim-1 (Homo sapiens) (UniProt P11309); test: Inhibition of PIM1 (unknown origin) at 1 uM relative to control
[15] = biological target: Tyrosine-protein kinase BTK (Homo sapiens) (UniProt Q06187); test: Inhibition of BTK (unknown origin) at 1 uM relative to control
[16] = biological target: Cyclin-dependent kinase 1 (Homo sapiens) (UniProt P06493); test: Inhibition of CDK1 (unknown origin) at 1 uM relative to control
[17] = biological target: LIM domain kinase 1 (Homo sapiens) (UniProt P53667); test: Inhibition of LIMK1 (unknown origin) at 1 uM relative to control
[18] = biological target: Aurora kinase A (Homo sapiens) (UniProt O14965); test: Inhibition of Aurora A (unknown origin) at 1 uM relative to control
[19] = biological target: Vascular endothelial growth factor receptor 1 (Homo sapiens) (UniProt P17948); test: Inhibition of VEGFR1 (unknown origin) at 1 uM relative to control
[20] = biological target: Serine/threonine-protein kinase PAK 1 (Homo sapiens) (UniProt Q13153); test: Inhibition of PAK1 (unknown origin) at 1 uM relative to control
[21] = biological target: Epithelial discoidin domain-containing receptor 1 (Homo sapiens) (UniProt Q08345); test: Inhibition of DDR1 (unknown origin) at 1 uM relative to control
[22] = biological target: Dual specificity mitogen-activated protein kinase kinase 1 (Homo sapiens) (UniProt Q02750); test: Inhibition of MEK1 (unknown origin) at 1 uM relative to control
[23] = biological target: Serine/threonine-protein kinase Chk2 (Homo sapiens) (UniProt O96017); test: Inhibition of CHK2 (unknown origin) at 1 uM relative to control
[24] = biological target: Serine/threonine-protein kinase TBK1 (Homo sapiens) (UniProt Q9UHD2); test: Inhibition of TBK1 (unknown origin) at 1 uM relative to control
[25] = biological target: Epidermal growth factor receptor (Homo sapiens) (UniProt P00533); test: Inhibition of EGFR (unknown origin) at 1 uM relative to control
[26] = biological target: Serine/threonine-protein kinase B-raf (Homo sapiens) (UniProt P15056); test: Inhibition of BRAF (unknown origin) at 1 uM relative to control
[27] = biological target: Serine/threonine-protein kinase 25 (Homo sapiens) (UniProt O00506); test: Inhibition of STK25 (unknown origin) at 1 uM relative to control
[28] = biological target: Maternal embryonic leucine zipper kinase (Homo sapiens) (UniProt Q14680); test: Inhibition of MELK (unknown origin) at 1 uM relative to control

Structure (SMILES): Cc1ccc2c(Nc3cc(C4CC4)[nH]n3)nc(NCc3ccc(F)cc3F)nc2c1
- inhibition [1]: 21%
- inhibition [2]: 7%
- inhibition [3]: 88%
- inhibition [4]: 13%
- inhibition [5]: 95%
- inhibition [6]: 96%
- inhibition [7]: 92%
- inhibition [8]: 80%
- inhibition [9]: 2%
- inhibition [10]: 4%
- inhibition [11]: 24%
- inhibition [12]: 30%
- inhibition [13]: 88%
- inhibition [14]: 5%
- inhibition [15]: 27%
- inhibition [16]: 79%
- inhibition [17]: 94%
- inhibition [18]: 96%
- inhibition [19]: 31%
- inhibition [20]: 31%
- inhibition [21]: 61%
- inhibition [22]: 9%
- inhibition [23]: 11%
- inhibition [24]: 21%
- inhibition [25]: 10%
- inhibition [26]: 3%
- inhibition [27]: 95%
- inhibition [28]: 81%
